For this assay, the target named is TYK2 (Homo sapiens, UniProt P29597). Put plainly: JAK kinase inhibitory activity, HTRF biochemical assay. As for the experimental part:
The compounds of the above embodiments were applied to the detection and screening of JAK kinase inhibitory activity.
A corresponding volume of DMSO was added to each well of a first 96-well plate. 20-30 μL of 100-200 μM stock solution of different test compounds were added to each well. The mixture was shaken and mixed for 3 min. All of the compounds were subjected to 3× serial dilution. 60-80 μL Kinase buffer was added to each well of a second 96-well plate, and 1-2 μL of the solution taken from each well of the first 96-well plate was added to the corresponding well of the second 96-well plate. The mixture was shaken and mixed for 3 min. 5 μL of compound dilution taken from each well of the second compound dilution plate was transferred to the corresponding well of a 384-well test plate. 1-2 μL TK Substrate-biotin was added to each well of the test plate. 1-2 μL of enzyme mixture was added to each well. At the same time, a blank well without enzyme was set. 1-2 μL of ATP solution was added to each well, the plate was sealed and reacted at room temperature. The reaction time was as follows: JAK1: 2 h, JAK2: 30 min, JAK3: 30 min, and TYK2: 50 min. […]
The percentage of inhibition was calculated based on the following formula: […]

Amino acid sequences for entries named in this document (tags omitted).
UniProt P29597, whole entry, species assumed: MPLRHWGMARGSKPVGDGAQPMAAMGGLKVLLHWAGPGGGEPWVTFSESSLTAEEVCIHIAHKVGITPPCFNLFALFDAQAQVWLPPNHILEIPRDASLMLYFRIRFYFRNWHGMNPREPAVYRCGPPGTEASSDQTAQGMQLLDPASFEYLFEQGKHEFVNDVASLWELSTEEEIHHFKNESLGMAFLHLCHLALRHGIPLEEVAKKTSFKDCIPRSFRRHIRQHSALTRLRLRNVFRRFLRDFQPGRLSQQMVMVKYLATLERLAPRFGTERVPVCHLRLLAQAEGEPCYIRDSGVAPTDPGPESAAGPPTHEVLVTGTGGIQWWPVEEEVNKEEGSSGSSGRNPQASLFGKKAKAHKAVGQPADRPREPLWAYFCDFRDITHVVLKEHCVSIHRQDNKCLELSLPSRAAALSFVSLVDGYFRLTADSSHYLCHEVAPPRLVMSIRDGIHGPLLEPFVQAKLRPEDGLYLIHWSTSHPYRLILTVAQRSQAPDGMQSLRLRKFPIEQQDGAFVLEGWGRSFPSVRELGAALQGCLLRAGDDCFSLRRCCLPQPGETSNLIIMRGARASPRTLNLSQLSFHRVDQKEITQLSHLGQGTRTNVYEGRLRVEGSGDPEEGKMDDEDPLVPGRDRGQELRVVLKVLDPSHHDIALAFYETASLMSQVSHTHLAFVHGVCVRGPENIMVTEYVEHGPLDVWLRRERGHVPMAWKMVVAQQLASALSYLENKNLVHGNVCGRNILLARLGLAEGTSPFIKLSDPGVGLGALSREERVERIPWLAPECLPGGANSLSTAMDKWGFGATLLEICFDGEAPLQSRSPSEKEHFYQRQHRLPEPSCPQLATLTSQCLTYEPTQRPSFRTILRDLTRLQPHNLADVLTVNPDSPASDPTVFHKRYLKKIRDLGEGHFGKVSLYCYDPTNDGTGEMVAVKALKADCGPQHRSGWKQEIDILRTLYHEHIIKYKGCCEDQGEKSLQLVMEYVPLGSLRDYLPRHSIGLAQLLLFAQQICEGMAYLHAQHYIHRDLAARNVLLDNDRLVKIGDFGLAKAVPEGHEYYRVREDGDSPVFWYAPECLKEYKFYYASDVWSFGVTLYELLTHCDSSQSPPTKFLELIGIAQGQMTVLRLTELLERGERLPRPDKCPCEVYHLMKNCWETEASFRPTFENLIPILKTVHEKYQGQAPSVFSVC

`O=C(Nc1nc2cccc(-c3ccc(CN4CCS(=O)(=O)CC4)cc3)n2n1)C1CC1` [Filgotinib, reference compound] showed an IC50 of more than 0.5 µM.

The term IC50 denotes the concentration that inhibits the measured activity by half. Read a low IC50 as greater potency.

The values are drawn from patent US20220274983A1, “JAK KINASE INHIBITOR AND USE THEREOF” (JIANGSU CAREPHAR PHARMACEUTICAL CO., LTD., priority 2019, published 2022).
